# US6916823B2, “Method of treatment of dopamine-related dysfunction” (Purdue Research Foundation, priority 2001, dated 2005)
# Amino acid sequences for entries named in this document (tags omitted).
# UniProt P18901, whole entry: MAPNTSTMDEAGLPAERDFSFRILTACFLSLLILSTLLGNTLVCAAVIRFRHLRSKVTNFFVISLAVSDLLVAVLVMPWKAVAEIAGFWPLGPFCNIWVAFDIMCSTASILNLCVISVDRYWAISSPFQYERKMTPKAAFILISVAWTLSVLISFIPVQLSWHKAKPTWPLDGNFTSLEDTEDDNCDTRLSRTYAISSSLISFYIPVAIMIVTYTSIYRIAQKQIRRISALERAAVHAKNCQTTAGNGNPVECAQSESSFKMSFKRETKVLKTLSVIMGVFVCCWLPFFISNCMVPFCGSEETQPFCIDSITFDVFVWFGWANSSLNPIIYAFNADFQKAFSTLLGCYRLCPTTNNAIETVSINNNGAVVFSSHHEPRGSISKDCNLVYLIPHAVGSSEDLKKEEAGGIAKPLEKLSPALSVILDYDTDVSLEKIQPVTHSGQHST
# Target: T1, D1 receptors (Rattus norvegicus, UniProt P18901)
# T1 construct: increase cAMP production in rat striatum and C-6-mD1 cells; from tissue; host or cells: rat striatum (striatal membranes)
# Test: cAMP production in rat striatum
# Assay type: biochemical
# Details: rat striatum / rat striatal membranes, relative to dopamine
smiles,measurement,value
"Oc1cc2c(cc1O)C(c1ccccc1)CNCC2 (single isomer, unassigned; (+)) [(+)-SKF-38393, reference compound]",agonist activity (intrinsic activity),partial agonist
